Assay results as given in patent US5874464A, “Conformationally constrained diacylglycerol analogues” (The United States of America as represented by the …, priority 1995, dated 1999).
Where two headings read alike, the source gives them in different places.

Target: T1, PK-C α (Homo sapiens, UniProt P17252)
T1 construct: made in house
Experiment: displacement of bound [3H-20]-phorbol-12,13-dibutyrate (PDBU) from single recombinant isozyme PK-C α
Settings: read-out: Apparent Ki for ligands as inhibitors of PDBU binding to PK-C
Method: This recombinant PK-C α was expressed in baculovirus and isolated as described by Kazanietz et al. (Mol. Pharmacol. 44: 298-307 (1993)).
The affinity of these ligands for PK-C was assessed in terms of their ability to displace bound [^3 H-20]-phorbol-12,13-dibutyrate (PDBU) from a purified product containing the single isozyme PK-C α.

[1] = Table II, racemic and chiral compounds

Ki (Table I) [nM]	Ki [1] [nM]	SMILES
28 ± 2.19		CCCCCCCC/C=C\CCCCCCC/C=C1\CC(CO)(COC(C)=O)OC1=O (racemic) [Compound 11f, rac-(E)-5-(acetyloxymethyl)5-(hydroxymethyl)-3-[(Z)-9-octadecenoylidene]-tetrahydro-2-furanone]
	28 ± 2.19	CCCCCCCC/C=C\CCCCCCC/C=C1\CC(CO)(COC(C)=O)OC1=O (stereo not drawn)
	11 ± 0.3	CCCCCCCC/C=C\CCCCCCC/C=C1/C[C@@](CO)(COC(C)=O)OC1=O
